# Measured values taken from patent US20250074871A1, “PHENETHYLAMINES AND METHODS OF PREPARATION THEREOF” (priority 2022, published 2025).
# Chains of the proteins cited; added tags and fusions are not shown.
# UniProt P41595, whole entry: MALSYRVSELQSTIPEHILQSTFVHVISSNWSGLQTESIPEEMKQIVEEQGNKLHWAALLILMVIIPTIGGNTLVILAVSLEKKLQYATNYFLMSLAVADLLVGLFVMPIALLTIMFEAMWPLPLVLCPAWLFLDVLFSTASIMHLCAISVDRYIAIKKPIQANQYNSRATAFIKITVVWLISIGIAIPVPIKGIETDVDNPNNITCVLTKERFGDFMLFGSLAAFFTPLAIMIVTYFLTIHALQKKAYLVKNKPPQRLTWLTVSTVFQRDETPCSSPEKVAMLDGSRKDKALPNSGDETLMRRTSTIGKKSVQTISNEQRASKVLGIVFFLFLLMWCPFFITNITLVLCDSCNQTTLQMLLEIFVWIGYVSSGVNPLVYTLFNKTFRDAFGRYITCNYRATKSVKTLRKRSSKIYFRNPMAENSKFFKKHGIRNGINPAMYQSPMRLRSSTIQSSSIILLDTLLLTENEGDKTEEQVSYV
# Biological target: T1, 5-HT2B receptor (Homo sapiens, UniProt P41595)
# T1 construct: expressed in transfected cells; host or cells: HEK293T
# Experiment: 5-HT2B Gq dissociation BRET functional assay
# Format: cell-based
# Details: 5-HT2B EC50, nM, Table 3 panel
compound,measurement,value
"CN(C)CCc1c[nH]c2cccc(O)c12 [psilocin, reference compound]",EC50,2.1 nM
